Data taken from patent US20190298846A1, “CELL TARGETING CONJUGATES” (LinXis B.V., priority 2016, published 2019).

Conditions: 5 mM solution in water containing 20 mM NaCl, at least 1 year at 4° C.

[Pt(en)(Fe—N-succinyl-(aminomethyl)piperidine desferrioxamine)Cl](TFA) [DFO-Lx]
decomposition upon storage (HPLC): no decomposition
